Data as given in patent US9750809B2, “Cancer treatment” (MOREX DEVELOPMENT PARTNERS LLP, priority 2012, dated 2017).

Experiment: Boron biodistribution in tissues of SCCVII tumour-bearing mice given MTL005 (DCP-AES)
Settings: irradiated mice (32 Gy), 150 mg/kg i.p., FIG. 1
Protocol: Direct current plasma-atomic emission spectroscopy [DCP-AES] (ARL/Fisons Model SS-7) was used (detection limit: 0.1 μg B/mL) to determine boron concentrations in tissues of individual mice. Samples (50-130 mg) were digested at 60° C. with sulfuric acid:nitric acid (1:1). Triton X-100 and water were added to give final concentrations of ˜50 mg tissue/mL, 15% total acid v/v and 5% Triton X-100 v/v. […] It is known that the ether linkages between the porphyrin and carborane cages remain intact in vivo.

**Q.** Which “Boron concentrations from livers at time of euthanasia” value (40-62 days post irradiation) does the source give for “copper meso-5,15-bis[3-[(1,2-dicarba-closo-dodecaboranyl)methoxy]phenyl]-meso-10,20-dinitroporphyrin [MTL005]” here?
**A.** Its value is 135 to 207 µg.

**Q.** What about the “Tumour boron concentration at time of euthanasia” value (constant over the time period (40-62 days post irradiation)) of the same substance?
**A.** The value was 9 to 22 µg/g.
